Antibody variant affinities, Ab-14 heavy chain, assay B

Target peptide (SARS-CoV-2 spike, HR2 region): PDVDLGDISGINAS

Ab-14 is the parent antibody, in scFv form: VH, then the linker GGGGSGGGGSGGGGS, then VL. The light chain is unchanged in all variants.
VH: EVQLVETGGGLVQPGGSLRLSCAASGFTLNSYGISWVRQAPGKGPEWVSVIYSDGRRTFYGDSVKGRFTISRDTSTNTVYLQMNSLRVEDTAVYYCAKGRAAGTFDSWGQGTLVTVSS
VL: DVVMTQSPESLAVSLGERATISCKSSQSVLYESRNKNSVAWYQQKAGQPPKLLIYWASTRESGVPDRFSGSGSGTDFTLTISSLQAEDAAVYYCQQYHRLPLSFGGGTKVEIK

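The parent was found by panning a naive human phage display library on the peptide. Designed CDR sequences, proposed from the first random library and measured here. Their group label is 14H_GP_HC (GP: Gaussian process model; HC: hill climbing; a sequence that several methods proposed may carry one label only). In AlphaSeq, yeast of one mating type display the scFv and yeast of the other type display the target. Pairs that bind mate more often; barcode pairs of the diploids are counted by sequencing. Each replicate has its own calibration line, from reference interactions of the BCL2 family. The assay was run in six technical replicates.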

Positions count from residue 1 of the parent VH; G61S puts S in place of G.
Scale: log10 of Kd in nM, estimated from mating counts; low values are strong binders.
An entry "nd" has no value in the source: the pair was not observed among the diploids in that replicate. This suggests poor binding but is not conclusive.
As a blank, each scFv also met three strains without target: over all heavy chain designs, 1% of these pairings were detected, typically at 2.08 and seldom below 0.84. Also given: how often the same scFv was detected with the empty control strains.
The parent sequence was in this pool as ten entries: three were never detected, three once, and four in most replicates, with averages from 0.34 to 2.37.
A sequence measured in both rounds can read differently, since the two assays cover different ranges.
The authors' rule: three or more of the six replicates give a measured affinity, fewer mean a poor binder.

With G61S/R100H/A102G the result was 2.76, 2.30, 0.87, 2.33, 2.34, 1.20 (controls 0 of 18).
With S31E/G103V/D106G/S107K the result was nd, nd, nd, nd, nd, nd (controls 0 of 18).
With S31E/G61T/R100F/S107L the result was 0.30, 0.67, 0.33, -0.04, 0.15, 0.21 (controls 1 of 18).
With F27N/S31E/G61T/A101W the result was 1.50, 3.05, 1.01, 2.29, 2.51, 1.14 (controls 0 of 18).
With S31E/G61I/A101Y the result was 0.81, 1.05, 0.62, 1.22, 1.39, 1.53 (controls 0 of 18).
With S31E/G61A/S63D/R100E/D106K the result was nd, nd, 0.39, nd, nd, nd (controls 0 of 18).
With T28S/R56E/G61C the result was nd, 1.60, 1.97, 2.06, 1.95, 1.73 (controls 0 of 18).
With S31D/F59M/G61T/A101C the result was nd, nd, nd, nd, nd, nd (controls 0 of 18).
With S53A/F105K the result was nd, nd, nd, nd, nd, nd (controls 0 of 18).
With S31E/G61A/A101F/S107R the result was nd, nd, nd, nd, nd, nd (controls 0 of 18).
With T28E/G61T/S63R/R100E the result was 1.00, 1.01, 0.64, 2.23, 0.72, 0.96 (controls 0 of 18).
With N30D/G61C the result was nd, 1.56, 1.66, nd, 2.03, 1.72 (controls 0 of 18).
With S31E/G61S/S63A/A101T the result was 0.34, 0.25, 0.04, 0.10, 0.49, 0.35 (controls 0 of 18).
With T28Q/S31D/G61H the result was 0.44, 0.82, 1.04, 0.55, 0.51, 0.92 (controls 0 of 18).
With T28D/G61Q/R100Q/A101L the result was 0.90, 0.75, 0.79, 0.16, -0.02, 0.34 (controls 0 of 18).
With T28S/G61D/R100M/A101Q the result was 0.58, 0.51, 0.76, 0.42, 0.42, 0.67 (controls 0 of 18).
With N30E/D106T/S107K the result was nd, nd, nd, nd, nd, nd (controls 0 of 18).
With T28Q/A101E the result was nd, 1.07, 1.39, 2.15, 1.04, 1.50 (controls 0 of 18).
With S53A/D106H the result was nd, nd, nd, nd, nd, nd (controls 0 of 18).
With N30E/D106T the result was nd, nd, nd, nd, nd, nd (controls 0 of 18).
With T28V/S31D/F59Y the result was 1.72, 1.77, 1.18, 2.04, 1.37, 1.68 (controls 0 of 18).
With T28D/S31E/S107K the result was 0.73, 0.00, -0.12, 0.92, -0.32, nd (controls 0 of 18).
With T28A/S31Q/G61S/R100E/S107K the result was nd, nd, nd, nd, nd, nd (controls 0 of 18).
With S31D/G61S/A101G the result was 1.43, 2.39, 1.35, 2.16, 1.68, 1.24 (controls 0 of 18).
With F27K/S31E/G103V/S107L the result was nd, 3.34, nd, nd, 1.64, 2.62 (controls 0 of 18).
With G26K/S31E/G61T/A101N the result was nd, 0.40, nd, 1.36, 0.73, 0.79 (controls 0 of 18).
With N30D/S53A/S107R the result was 0.65, 0.39, -0.09, -0.29, -0.08, 0.29 (controls 1 of 18).
With S31E/G61Y/A101F/S107T the result was nd, nd, nd, nd, nd, nd (controls 0 of 18).
With S31E/F59Q/G61I/D106W the result was nd, nd, nd, nd, nd, nd (controls 0 of 18).
With S31E/G61S/S107Q the result was 0.38, 0.78, 0.32, 0.62, 0.48, 0.48 (controls 1 of 18).
With T28A/G61M/R100Q/A101L the result was nd, nd, 0.49, nd, nd, nd (controls 0 of 18).
With T28D/G61A/D106N/S107M the result was nd, nd, nd, nd, nd, nd (controls 0 of 18).
With F27N/S31E/G61T/A101N the result was 0.38, 0.35, 0.64, 0.62, 0.06, 0.52 (controls 0 of 18).
With T28P/S31E/S53A/R100D the result was -0.35, -0.37, -0.55, -0.42, -0.31, -0.27 (controls 1 of 18).
With F27N/S31D/F59A/G61I the result was 0.73, 0.66, -0.07, -0.05, 0.12, 0.50 (controls 0 of 18).
With S31E/F59Y/D106I the result was nd, nd, nd, nd, nd, nd (controls 0 of 18).
With S31E/F59Q/G61D the result was 1.14, 0.99, 1.67, 1.03, 1.43, 2.01 (controls 0 of 18).
With G61I/A101E/D106F the result was nd, nd, nd, nd, nd, nd (controls 0 of 18).
With N30D/G61D/R100Y the result was nd, 0.95, nd, 1.64, 1.08, nd (controls 0 of 18).
With F27Y/G61I/R100Q/A101L the result was nd, nd, nd, nd, nd, nd (controls 0 of 18).
With T28D/G103W/D106W the result was nd, nd, nd, nd, nd, nd (controls 0 of 18).
With G103V/D106N/S107Q the result was nd, nd, nd, nd, nd, nd (controls 0 of 18).
With T28Q/S31E/S53A the result was -0.01, -0.12, 0.25, -0.32, 0.15, 0.18 (controls 0 of 18).

The first 7 variants above that were never detected:

The variant S31E/G103V/D106G/S107K gave nd, nd, nd, nd, nd, nd (controls 0 of 18).
The variant S31D/F59M/G61T/A101C gave nd, nd, nd, nd, nd, nd (controls 0 of 18).
The variant S53A/F105K gave nd, nd, nd, nd, nd, nd (controls 0 of 18).
The variant S31E/G61A/A101F/S107R gave nd, nd, nd, nd, nd, nd (controls 0 of 18).
The variant N30E/D106T/S107K gave nd, nd, nd, nd, nd, nd (controls 0 of 18).
The variant S53A/D106H gave nd, nd, nd, nd, nd, nd (controls 0 of 18).
The variant N30E/D106T gave nd, nd, nd, nd, nd, nd (controls 0 of 18).

Values reported by Li et al. 2023, doi:10.1038/s41467-023-39022-2 (FLAb copy).